{"source": "patent US20040014187A1", "about": "“Bacterial carboxypeptidase cpg2 variants and their use in gene directed enzyme prodrug therapy” (priority 2000, published 2004)", "molecules": {"B1": {"name": "CPG2*(Q)3: cytosolic CPG2* bearing three asparagine to glutamine mutations (N222, N264, N272) (protein)", "chain": "ALAQKRDNVLFQAATDEQPAVIKTLEKLVNIETGTGDAEGIAAAGNFLEAELKNLGFTVTRSKSAGLVVGDNIVGKIKGRGGKNLLLMSHMDTVYLKGILAKAPFRVEGDKAYGPGIADDKGGNAVILHTLKLLKEYGVRDYGTITVLFNTDEEKGSFGSRDLIQEEAKLADYVLSFEPTSAGDEKLSLGTSGIAYVQVQITGKASHAGAAPELGVNALVEASDLVLRTMNIDDKAKNLRFQWTIAKAGQVSNIIPASATLNADVRYARNEDFDAAMKTLEERAQQKKLPEADVKVIVTRGRPAFNAGEGGKKLVDKAVAYYKEAGGTLGVEERTGGGTDAAYAALSGKPVIESLGLPGFGYHSDKAEYVDISAIPRRLYMAARLIMDLGAGK"}}, "assay": "Enzyme kinetic studies of CPG2-derived enzymes in detergent soluble cell extracts, MTX as substrate", "type": "biochemical", "protocol": "COS-7 cells were used for transient expression to provide detergent soluble extracts containing large amounts of CPG2*, CPG2*(Q)3 and stCPG2(Q)3 enzymes for enzyme kinetic studies. Detergent soluble cell extracts, and enzyme kinetic analyses have been described previously (Marais et al (1996) Cancer Res. 56, 4735-4742; Marais et al (1997) Nature Biotech. 15, 1373-1377). Levels of CPG2 protein in detergent soluble extracts were determined by quantitative immunoprotein blotting using a PhosphorImager standardised with purified CPG2 expressed in insect cells. Kinetic parameters of the CPG2 derived proteins were measured, in all cases using 50 ng of CPG2* per assay, and the equivalent amount of the internally expressed and cell-surface tethered variants. The specific activity of COS/CPG2* preparations containing 50 ng of CPG2* protein was assigned as 100%.", "note": "Where two headings read alike, the source gives them in different places."}
{"molecule": "B1", "values": [{"measurement": "Catalytic activity (%)", "setting": "specific activity of COS/CPG2* (50 ng CPG2*) assigned as 100%", "value": 32, "unit": "%"}, {"measurement": "Km", "setting": "substrate MTX, detergent soluble cell extract, read-out: Km (μM MTX)", "value": 10.4, "unit": "µM"}, {"measurement": "Km", "setting": "unit μm [sic], read-out: Km", "value": "7 to 10", "unit": "µM"}]}
